Test results from patent US7189858B2, “N-phenyl substituted carbamoyloxyalkyl-azolium derivatives” (Basilea Pharmaceutica AG, priority 1999, dated 2007).

Experiment: Solubility (Table 1)
Settings: solvent a = distilled water

1-[[N-methyl-N-2-(methylamino)acetoxymethyl-3-methyl-phenyl]carbamoyloxy]ethyl-1-[(2R,3R)-2-(2,5-difluorophenyl)-2-hydroxy-3-[4-(4-cyanophenyl)thiazol-2-yl]butyl]-1H-[1,2,4]triazol-4-ium iodide hydrochloride [Example 7.21.]
Solubility: >10000 µg/mL
